Source: patent publication US20190343860A1 (Saint Louis University, priority 2016, published 2019)

Columns and labels:
[1] = test system: mitochondria in peripheral sensory afferents (PNSAs); experiment: Mitochondrial ATP production in peripheral sensory afferents after in vivo treatment; conditions: oxaliplatin 5 days, 10 mg/kg cumulative dose
[2] = biological target: T1, mA3AR (Mus musculus, UniProt Q61618); experiment: cAMP assay, inhibition of forskolin-stimulated cAMP in mAR-transfected HEK cells; assay type: cell-based; conditions: species m; percentage of maximal effect of 1a, from concentration-effect curves
T1 construct: expressed in transfected cells
T1 sequence (Q61618 1-319): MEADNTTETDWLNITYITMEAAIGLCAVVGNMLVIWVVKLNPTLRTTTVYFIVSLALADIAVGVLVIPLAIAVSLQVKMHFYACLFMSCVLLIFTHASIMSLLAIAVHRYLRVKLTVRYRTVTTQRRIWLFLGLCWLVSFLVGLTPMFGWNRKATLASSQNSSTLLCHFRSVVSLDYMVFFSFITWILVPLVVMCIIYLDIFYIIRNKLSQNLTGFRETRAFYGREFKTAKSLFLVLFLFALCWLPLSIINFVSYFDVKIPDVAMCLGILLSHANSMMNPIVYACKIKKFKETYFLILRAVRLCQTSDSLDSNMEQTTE

Compound | Mitochondrial function (ATP production) in PNSAs [1] | % efficacy [2]
O=C1[O][Pt]2([NH][C@@H]3CCCC[C@H]3[NH]2)[O]C1=O [oxaliplatin, reference compound] | reduced ATP production | 
O[C@@H]1[C@H](O)[C@@H]2C[C@@H]2[C@H]1n1cnc2c(NCCc3ccccc3)nc(C#Cc3ccccc3)nc21 [Cmpd 14] |  | 14.3 ± 6.1%
